Target: T1, AsolRXFP/LGR3 (Acanthaster planci, UniProt A0A8B7XXQ8)
T1 sequence (A0A8B7XXQ8 1-847): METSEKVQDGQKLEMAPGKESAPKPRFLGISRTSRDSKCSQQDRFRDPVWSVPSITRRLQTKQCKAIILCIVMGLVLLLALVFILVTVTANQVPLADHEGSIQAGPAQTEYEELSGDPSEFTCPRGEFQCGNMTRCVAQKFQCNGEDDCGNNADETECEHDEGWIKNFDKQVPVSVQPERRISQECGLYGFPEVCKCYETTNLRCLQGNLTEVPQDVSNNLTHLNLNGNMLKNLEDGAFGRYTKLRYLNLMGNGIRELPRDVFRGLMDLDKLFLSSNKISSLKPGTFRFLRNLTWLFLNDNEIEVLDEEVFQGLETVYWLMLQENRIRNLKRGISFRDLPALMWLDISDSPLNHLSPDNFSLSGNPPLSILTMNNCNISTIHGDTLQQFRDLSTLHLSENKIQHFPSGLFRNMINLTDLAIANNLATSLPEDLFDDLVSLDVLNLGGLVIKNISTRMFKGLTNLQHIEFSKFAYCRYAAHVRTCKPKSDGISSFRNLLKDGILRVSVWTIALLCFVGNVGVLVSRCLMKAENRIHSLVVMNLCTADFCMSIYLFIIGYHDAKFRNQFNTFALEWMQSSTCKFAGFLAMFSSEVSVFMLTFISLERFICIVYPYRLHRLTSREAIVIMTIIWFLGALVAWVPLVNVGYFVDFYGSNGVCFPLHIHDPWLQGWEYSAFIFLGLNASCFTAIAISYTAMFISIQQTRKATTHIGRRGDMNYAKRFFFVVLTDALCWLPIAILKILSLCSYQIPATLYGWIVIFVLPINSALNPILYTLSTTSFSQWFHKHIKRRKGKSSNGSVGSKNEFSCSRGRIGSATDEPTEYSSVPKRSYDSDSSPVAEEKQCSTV
Test: CRE reporter gene assay in CHO cells stably expressing AsolRXFP/LGR3
Assay type: cell-based, A. cf. solaris
Method: Human embryonic kidney (HEK) 293T cells were grown in complete Dulbecco’s modified Eagle medium (DMEM; Gibco) and Chinese hamster ovary (CHO) cells in complete DMEM/F12 (Gibco). Media was supplemented with 10% fetal bovine serum, 1% penicillin/streptomycin, and 1% L‐glutamine (complete media; All from Gibco). HEK-293T cells were transfected with LipofectAMINE 2000 (Invitrogen) and CHO cells with CHO TransIT and CHO-Mojo (Mirus), both according to the manufacturer’s instructions.
CHO and HEK293T cells stably expressing AsolRXFP/LGR3 were generated by lentiviral transduction. […] Transduced cells were sorted from non-transduced cells using the GFP reporter by fluorescence-activated cell sorting (FACS), using a Becton Dickinson FACSAria III as previously described. […]
The ability of the A. cf. solaris receptors to respond to A. cf. solaris RGP1 and RGP2 peptides was tested using a pCRE β-galactosidase reporter gene assay in CHO cells stably expressing AsolRXFP/LGR3 or HEK-293T cells transfected with AsolRXFP/LGR4 (long) or AsolRXFP/LGR4 (short), as described in detail previously. […] Plates were thawed for the development of β-galactosidase activity, as described previously, with absorbance being read at 570 nm on an Epoch 2 microplate reader. […]

**Q.** “Acanthaster cf. solaris Relaxin-like gonad-stimulating peptide 2 [AsolRGP2]” was tested. Which “potency (pEC50)” value (CHO-AsolRXFP/LGR3 cells, pCRE β-galactosidase reporter, 6 h at 37 °C, three-parameter fit, n = 6) did it give?
**A.** Dose–response curves could not be fitted

**Q.** How did the “potency (pEC50)” value (Fig. 5 legend, pooled data of at least three assays in triplicate, mean, S.E.M.) turn out when “Acanthaster cf. solaris Relaxin-like gonad-stimulating peptide 1 [AsolRGP1]” was run?
**A.** 7.80 ± 0.18

Reference: publication PMC11863921 (BMC Biology, 2025)
